Data taken from patent US6916797B2, “α-arylethylpiperazine derivatives as neurokinin antagonists” (UCB, S.A., priority 2000, dated 2005).

Tests used:
[1] = test system: verapamil binding site of the L-type calcium channel; experiment: Inhibition of [3H]D888 binding to the verapamil binding site of the L-type calcium channel (rat cerebral cortex membranes); conditions: 10 μmol/l of test substance
[2] = test system: isolated rat aorta contracted by 100 mM KCl; experiment: Effect of compound on isolated rat aorta contracted by 100 mM KCl; conditions: 10^−5 M, contraction by 100 mM KCl

SMILES: O=C(O)c1cccc(CN2CCN(C(COCc3cc(C(F)(F)F)cc(C(F)(F)F)c3)c3ccccc3)CC2)c1 (racemic)
% inhibition of [3H]D888 binding to the verapamil binding site of the L-type calcium channel ([1]; tested form: 2 HCl.1/2 H2O): + (+: inhibition comprised between 20 and 50%)
Result: effect of compound on isolated rat aorta contracted by 100 mM KCl ([2]; tested form: 2 HCl.1/2 H2O): inactive à 10^−5 M

SMILES: O=C(O)CN1CCN(C(COCc2cc(C(F)(F)F)cc(C(F)(F)F)c2)c2cccc(Cl)c2)CC1 (single isomer, unassigned)
% inhibition of [3H]D888 binding to the verapamil binding site of the L-type calcium channel ([1]; tested form: 2 maleate): + (+: inhibition comprised between 20 and 50%)

SMILES: O=C(O)CN1CCN(C(COCc2cc(Br)cc(I)c2)c2ccccc2)CC1 (racemic)
% inhibition of [3H]D888 binding to the verapamil binding site of the L-type calcium channel ([1]; tested form: 1 maleate.1 H2O): + (+: inhibition comprised between 20 and 50%)

SMILES: O=C(O)CN1CCCN(C(COCc2cc(C(F)(F)F)cc(C(F)(F)F)c2)c2ccccc2)CC1 (racemic)
% inhibition of [3H]D888 binding to the verapamil binding site of the L-type calcium channel ([1]; tested form: 2 HCl.3/2 H2O): + (+: inhibition comprised between 20 and 50%)

SMILES: O=C(O)c1cccc(CN2CCCN(C(COCc3cc(C(F)(F)F)cc(C(F)(F)F)c3)c3ccccc3)CC2)c1 (single isomer, unassigned)
% inhibition of [3H]D888 binding to the verapamil binding site of the L-type calcium channel ([1]; tested form: 2 maleate.1 H2O): + (+: inhibition comprised between 20 and 50%)

SMILES: CC(C)c1cccc(C(COCc2cc(C(F)(F)F)cc(C(F)(F)F)c2)N2CCN(CC(=O)O)CC2)c1 (racemic)
% inhibition of [3H]D888 binding to the verapamil binding site of the L-type calcium channel ([1]; tested form: 2 maleate): + (+: inhibition comprised between 20 and 50%)

SMILES: FC(F)(F)c1cc(COCC(c2ccccc2)N2CCN(CCCCCc3nnn[nH]3)CC2)cc(C(F)(F)F)c1 (centres unmarked)
% inhibition of [3H]D888 binding to the verapamil binding site of the L-type calcium channel ([1]; tested form: 2 maleate): + (+: inhibition comprised between 20 and 50%)
Result: effect of compound on isolated rat aorta contracted by 100 mM KCl ([2]; tested form: 2 maleate): inactive à 10^−5 M

SMILES: O=C(O)CN1CCN(C(COCc2cc(C(F)(F)F)cc(C(F)(F)F)c2)c2ccc(Cl)c(Cl)c2)CC1 (single isomer, unassigned)
% inhibition of [3H]D888 binding to the verapamil binding site of the L-type calcium channel ([1]; tested form: 1 H2O): + (+: inhibition comprised between 20 and 50%)

More lines, main results first:

% inhibition of [3H]D888 binding to the verapamil binding site of the L-type calcium channel ([1]; tested form: 2 HCl): 0 (0: inhibition < 20%)
SMILES: O=C(O)CN1CCN(C(COCc2cc(C(F)(F)F)cc(C(F)(F)F)c2)c2ccccc2[N+](=O)[O-])CC1 (racemic)

% inhibition of [3H]D888 binding to the verapamil binding site of the L-type calcium channel ([1]; tested form: 2 HCl): 0 (0: inhibition < 20%)
SMILES: O=P(O)(O)CCN1CCN(C(COCc2cc(C(F)(F)F)cc(C(F)(F)F)c2)c2ccccc2)CC1 (racemic)

% inhibition of [3H]D888 binding to the verapamil binding site of the L-type calcium channel ([1]; tested form: 2 HCl.5/2 H2O): 0 (0: inhibition < 20%)
SMILES: C[C@@H](OC[C@H](c1ccccc1)N1CCN(CC(=O)O)CC1)c1cc(C(F)(F)F)cc(C(F)(F)F)c1

% inhibition of [3H]D888 binding to the verapamil binding site of the L-type calcium channel ([1]; tested form: 2 maleate): 0 (0: inhibition < 20%)
SMILES: O=C(O)CN1CCN(C(COCc2cc(C(F)(F)F)cc(C(F)(F)F)c2)c2cccc(F)c2F)CC1 (racemic)

% inhibition of [3H]D888 binding to the verapamil binding site of the L-type calcium channel ([1]; tested form: 1/2 H2O): 0 (0: inhibition < 20%)
SMILES: O=C(O)CN1CCN(C(COCc2cc(C(F)(F)F)cc(C(F)(F)F)c2)c2cc(F)c(F)c(F)c2)CC1 (racemic)

% inhibition of [3H]D888 binding to the verapamil binding site of the L-type calcium channel ([1]; tested form: 2 maleate): 0 (0: inhibition < 20%)
SMILES: O=C(O)CN1CCN(C(COCc2cc(Br)cc(Br)c2)c2ccccc2)CC1 (racemic)

% inhibition of [3H]D888 binding to the verapamil binding site of the L-type calcium channel ([1]; tested form: 1 H2O): 0 (0: inhibition < 20%)
SMILES: Cc1ccc(C(COCc2cc(C(F)(F)F)cc(C(F)(F)F)c2)N2CCN(CC(=O)O)CC2)cc1 (racemic)

% inhibition of [3H]D888 binding to the verapamil binding site of the L-type calcium channel ([1]; tested form: 2 HCl.1 H2O): 0 (0: inhibition < 20%)
SMILES: C[C@@H](OC[C@H](c1ccccc1)N1CCN(CCOCC(=O)O)CC1)c1cc(C(F)(F)F)cc(C(F)(F)F)c1

% inhibition of [3H]D888 binding to the verapamil binding site of the L-type calcium channel ([1]; tested form: 2 HCl): 0 (0: inhibition < 20%)
SMILES: O=C(O)CN1CCN(C(COCc2cc(Cl)cc(Cl)c2)c2ccccc2)CC1 (racemic)
Result: effect of compound on isolated rat aorta contracted by 100 mM KCl ([2]; tested form: 2 HCl): inactive à 10^−5 M

Each block holds one compound with its values, some of them ahead of it.
